Experimental data reported in PubChem BioAssay AID802 (Columbia University Molecular Screening Center, 2007).
The list shows a part of the results, in another mix than the full data. Some tests of the compounds listed are not included; inactive here does not mean inactive elsewhere. Calls of active or inactive are those of the source.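 How the source made its calls: active means inhibition above the batch mean plus 3 SD, with images confirmed as a hit by eye (cut at about 37% in these data); inconclusive means inhibition above that limit but hit not confirmed in images; inactive means inhibition not above that limit.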

assay: inhibitors of TNFa-induced VCAM1 expression, primary screen, imaging, HUVEC, TNFa stimulus, immunofluorescence (AID 802); conditions: HUVEC TNFa-induced VCAM-1 immunofluorescence, high-content imaging; at 2 µM; active compounds read high;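 further: 0% = TNF-stimulated DMSO wells and 100% = unstimulated control wells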

| SMILES | inhibition |
| --- | --- |
| CC(C)N1C(=O)CC2(CCN(CCOC(=O)C(O)(c3ccccc3)c3ccccc3)CC2)C1=O | inactive: -6.2% |
| CN(C)c1cccc(C(=O)NCC2(N(C)C)CCCCC2)c1 | inactive: 2.8% |
| O=C(OC1CN2CCC1CC2)C(CO)(c1ccccc1)c1ccccc1 (stereo not drawn) | inactive: -2.8% |
